Test results published in PMC6214487 (Journal of drug design and research, 2018).

System: HIV-1JR-FL envelope pseudotyped virus
Assay: Single-round infection assay, early-stage events
Settings: compound present at infection of target cells, luciferase

CCn1ncc(CC(=O)NC(Cc2ccccc2)C(=O)N(C)c2ccccc2)c1C(F)F (stereo not shown) [CX06, 2-(2-(5-(difluoromethyl)-1-ethyl-1H-pyrazol-4-yl)acetamido)-N-methyl-N,3-diphenylpropanamide]
Effect on early-stage events, infectivity of target cells: displays effects in both the late, assembly and early, infective stages
